Publication PMC11174489, “In Vitro Activation of Human Adrenergic Receptors and Trace Amine-Associated Receptor 1 by Phenethylamine Analogues Present in Food Supplements” (Nutrients, 2024)

How the values were obtained:
[1] = molecular target: T1, human adrenergic receptor (ADR) α1A (Homo sapiens, UniProt P35348); experiment: ADRα1A activation, Ca2+ influx (Fluo-8) in overexpressing chem-1 cells; format: cell-based
T1 construct: host or cells: rat chem-1 cells
T1 sequence (P35348 1-466): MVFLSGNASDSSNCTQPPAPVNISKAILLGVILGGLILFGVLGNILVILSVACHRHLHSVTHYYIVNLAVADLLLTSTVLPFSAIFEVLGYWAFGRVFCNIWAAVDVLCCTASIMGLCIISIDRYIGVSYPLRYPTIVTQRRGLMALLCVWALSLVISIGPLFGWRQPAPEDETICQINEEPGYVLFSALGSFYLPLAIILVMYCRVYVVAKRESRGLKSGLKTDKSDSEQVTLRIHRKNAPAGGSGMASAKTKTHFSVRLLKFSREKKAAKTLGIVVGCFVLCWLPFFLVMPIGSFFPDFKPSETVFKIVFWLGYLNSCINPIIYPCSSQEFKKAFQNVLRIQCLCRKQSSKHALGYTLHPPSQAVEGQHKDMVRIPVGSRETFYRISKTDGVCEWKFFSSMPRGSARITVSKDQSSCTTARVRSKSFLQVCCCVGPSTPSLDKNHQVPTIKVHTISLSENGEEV

[2] = molecular target: T2, human trace amine-associated receptor 1 (TAAR1) (Homo sapiens, UniProt Q96RJ0); experiment: TAAR1 activation, intracellular cAMP (ELISA) in HEK293T cells stably expressing human TAAR1; format: cell-based
T2 construct: expressed in transfected cells
T2 sequence (Q96RJ0 1-339): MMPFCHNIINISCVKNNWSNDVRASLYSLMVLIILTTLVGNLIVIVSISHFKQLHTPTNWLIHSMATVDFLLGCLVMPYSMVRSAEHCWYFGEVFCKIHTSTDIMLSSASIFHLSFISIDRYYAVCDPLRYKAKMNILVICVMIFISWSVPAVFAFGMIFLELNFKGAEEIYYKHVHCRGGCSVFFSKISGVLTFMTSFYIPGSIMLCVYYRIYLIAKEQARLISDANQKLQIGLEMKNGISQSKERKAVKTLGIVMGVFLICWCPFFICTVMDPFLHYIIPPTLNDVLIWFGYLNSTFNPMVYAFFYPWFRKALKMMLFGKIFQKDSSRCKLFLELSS

Methyltyramine
ADRα1A Emax ([1]; % of maximal signal obtained by adrenaline, average (95% CI)): - | EC50 ([1]; Ca2+ response, chem-1 cells, average (95% confidence interval), 7–9 experiments): > 300 µM | TAAR1 Emax ([2]; % of maximal cAMP level obtained by phenethylamine, average (95% CI)): 83 (78–87) % | EC50 ([2]; cAMP, HEK293T-hTAAR1 cells, 1 h exposure, average (95% confidence interval), 3–5 experiments): 23 µM
